From paper PMC3342997 (HIV Medicine, 2011)
Values joined by “and” are separate entries in the source; they are usually repeats but may differ in a detail not shown here. Equal values may be shown once. Read-outs that look alike come from different tables or passages of the source.

Conditions: for CL/F: 200 mg once daily, geometric least-squares mean (90% CI)
[1] = third-trimester:postpartum ratio

With `Nc1nc(=O)n([C@@H]2CS[C@H](CO)O2)cc1F` [emtricitabine] the CL/F (postpartum (n = 22)) was 20.6 (18.4–23.2) L/hr and 20.6 L/hr, the CL/F (postpartum (n = 22), listed as Emtricitabine) was 20.6 (18.4–23.2) L/hr and the CL/F (third trimester (n = 26)) was 25.0 (22.6–28.3) L/hr. The “AUC, geometric mean of within-subject third-trimester:postpartum ratio (90% CI)” value [1] was 0.82 (0.71–0.96), the “C24, geometric mean of within-subject third-trimester:postpartum ratio (90% CI)” value [1] was 0.68 (0.54–0.85) and the “CL/F, geometric mean of within-subject third-trimester:postpartum ratio (90% CI)” value [1] was 1.2 (1.04–1.41). For the same compound, the “Cmax, geometric mean of within-subject third-trimester:postpartum ratio (90% CI)” value [1] was 0.97 (0.79–1.20), the “Vd/F, geometric mean of within-subject third-trimester:postpartum ratio (90% CI)” value [1] was 1.1 (0.88–1.41) and the “t1/2, geometric mean of within-subject third-trimester:postpartum ratio (90% CI)” value [1] was 0.92 (0.77–1.09).
